Values quoted from earlier work in patent publication US9738710B2, “Method of treating a patient for pain by administering an anti-ion channel antibody” (UCB Biopharma SPRL, priority 2009, dated 2017).

## Abatacept: fusion of human CTLA-4 with IgG1 hinge-Fc
  immunogenicity (patients with anti-drug antibodies / incidence): 3%

## Eculizimumab: humanised anti-human C5 mAb comprising a hybrid constant region
  immunogenicity (patients with anti-drug antibodies / incidence): 3%
